Results from US6340581B1, “Biological production of products from waste gases” (Bioengineering Resources, Inc., priority 1992, dated 2002).

Assay: Acetic acid distribution coefficient study: solvents for recovering acetic acid from the permeate
Format: physicochemical

CCCCOP(=O)(OCCCC)OCCCC
Equilibrium Aqueous Acetic Acid Concentration (aqueous phase after contact with the solvent): 1.657 g/L
Acetic Acid Distribution Coefficients (solvent vs aqueous phase): 2.38
